Hits are enriched below; roughly 0.46% of the tested compounds scored in any of these assays.
HCMV UL50-53 inh: cytomegalovirus nuclear egress complex inhibition; HTRF UL50-UL53 interaction, normalized percent inhibition; AID 1918969; 190,000 tested, 0.15% active; inhibition, % (concentration not given with the values); in the data active means inhibition above about 27%, passing the limit was not always enough
GIV-Gai inh: inhibitors of GIV GBA-motif binding to rat Galpha-i3; P08753; Galpha-i3/FITC-GIV peptide fluorescence polarization, 90 min; hits give low values; scaled: aluminum fluoride 0%, vehicle 100%; percent of control (FP), % (test concentration not listed); actives 0.42% (n = 210,000); AID 1224905;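 active = replicate mean at 85% of control or lower, very high polarization wells dropped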;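 also: wells of about 15 µL received 100 nL stock; the first replicate is given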
Active calls of the source: *; . = not tested or not shown.

#	structure	HCMV UL50-53 inh	GIV-Gai inh
1	CN1CCc2c(sc(NC(=O)c3nc4ccccc4s3)c2-c2nc3ccccc3s2)C1	.	96
2	CC(=O)N1CCc2c(sc(NC(=O)C(C)C)c2-c2nc3ccccc3s2)C1	-17	.
3	CC(C)N1CCc2c(sc(NC(=O)C(C)(C)C)c2-c2nc3ccccc3s2)C1	.	-26*
4	COC(=O)c1ccc(C(=O)Nc2sc3c(c2-c2nc4ccccc4s2)CCN(C(C)C)C3)cc1	.	262
5	O=C(O)COCC(=O)N1CC(=O)Nc2ccccc21	-19	100
6	CNC(=O)c1cc2n(n1)CC(C)(C(=O)NC1CCCCC1)N(C)C2=O (stereo unspecified)	-5	100
7	CCOc1cccc(-c2noc(CCn3nc(-c4ccc(Cl)cc4)ccc3=O)n2)c1	.	105
8	O=c1/c(=C/c2cccc([N+](=O)[O-])c2)sc2nnc(-c3ccccc3Cl)n12	.	107
9	CCCN1C/C(=C\c2ccc(N(C)C)cc2)C(=O)/C(=C/c2ccc(N(C)C)cc2)C1	-29	221
10	COc1cccc2c1CC/C(=C\c1ccc(N(C)C)cc1)C2=O	-19	-69*
11	CC(C)C/C=C1\CC/C(=C\c2ccc(N(C)C)cc2)C1=O	-23	-74*
12	CN(C)c1ccc(/C=C2\CCC(=C3SCCCS3)C2=O)cc1	-19	.

An excerpt of these results, as labelled records.
[9] CCCN1C/C(=C\c2ccc(N(C)C)cc2)C(=O)/C(=C/c2ccc(N(C)C)cc2)C1
  HCMV UL50-53 inh: -29	GIV-Gai inh: 221
[10] COc1cccc2c1CC/C(=C\c1ccc(N(C)C)cc1)C2=O
  HCMV UL50-53 inh: -19	GIV-Gai inh: -69*
[11] CC(C)C/C=C1\CC/C(=C\c2ccc(N(C)C)cc2)C1=O
  HCMV UL50-53 inh: -23	GIV-Gai inh: -74*
[12] CN(C)c1ccc(/C=C2\CCC(=C3SCCCS3)C2=O)cc1
  HCMV UL50-53 inh: -19	GIV-Gai inh: .

Next results follow.
#	structure	HCMV UL50-53 inh	GIV-Gai inh
13	Cc1[nH]n(-c2ccccc2)c(=O)c1/C=C1\C=c2ccccc2=NC1=O	.	104
14	O=C(/C=C/c1cccs1)N(CC1CCCO1)C1CCS(=O)(=O)C1 (stereo unspecified)	-56	.
15	N#CC1(C#N)[C@@H]2c3ccccc3C=CN2[C@@H](C(=O)c2cccs2)[C@@H]1c1ccccc1C(F)(F)F	.	116
16	COc1ccc(/C=C2\N=C(c3ccc(Cl)cc3)N(c3cc(Cl)ccc3C)C2=O)cc1OC	.	131
17	COc1ccccc1/C=C1\N=C(c2ccc(OC)c(OC)c2)N(c2ccc(Cl)cc2)C1=O	.	77*
18	COc1ccc(/C=C2\N=C(c3ccc(Cl)cc3)N(c3ccccc3Br)C2=O)cc1OC	.	67*
19	COc1cccc(C2=N/C(=C\c3ccccc3OC)C(=O)N2c2ccc(C)c(F)c2)c1	.	61*
20	COc1ccccc1/C=C1\N=C(c2ccc(OC)c(OC)c2)N(c2ccc(Cl)c(Cl)c2)C1=O	.	100
21	COc1cccc(C2=N/C(=C/c3ccccc3OC)C(=O)N2c2ccc(OC)c(OC)c2)c1	.	114
22	C#CCOC(=O)c1sc2ccccc2c1Cl	0	96
23	CCCN1C(=O)/C(=C/c2ccc(-c3ccc(Br)cc3)o2)NC1=S	-27	-83*
24	CCCN1C(=O)/C(=C/c2ccc(-c3cccc(C(F)(F)F)c3)o2)NC1=S	-30	187
25	Cc1nc(Nc2ccc(NS(=O)(=O)c3ccc4c(c3)OCCO4)cc2)cc(N(C)C)n1	10	100
26	O=C(c1ccc(Nc2nn3c(=O)c4ccccc4nc3s2)cc1)N1CCc2ccccc2C1	56*	101
27	Cc1ccccc1Nc1nn2c(=O)c3ccc(C(=O)N4CCc5ccccc5C4)cc3nc2s1	-28	103
28	CCOc1ccc(NS(=O)(=O)c2ccc3nc(-c4ccccc4)[nH]c3c2)cc1	-14	106
29	CCOc1ccc(-c2nc3ccc(-c4nc5ccc(N6CCN(C)CC6)cc5[nH]4)cc3[nH]2)cc1	75*	.
30	N#Cc1c(N)n(Cc2ccccc2)c2nc3ccccc3nc12	-20	.
31	N#Cc1c(NS(=O)(=O)c2ccccc2)n(-c2ccccc2)c2nc3ccccc3nc12	-42	.
32	Cc1ccc(S(=O)(=O)Nc2c(C#N)c3nc4ccccc4nc3n2Cc2ccccc2)cc1	77*	.
33	C=CCn1c(NS(=O)(=O)c2ccccc2)c(C#N)c2nc3ccccc3nc21	65*	.
34	CCc1ccc(NC(=O)C2c3ccccc3C(=O)N(CCOC)C2c2c[nH]c3ccccc23)cc1 (stereo unspecified)	.	103
35	Cc1ccccc1S(=O)(=O)Nc1ccc(-c2nnc(-c3ccccc3)o2)cc1	.	103
36	O=C1S/C(=C\c2ccc(N3CCOCC3)o2)C(=O)N1Cc1ccc(F)cc1	-32	258
37	O=C(CN1C(=O)S/C(=C\c2ccc(N3CCOCC3)o2)C1=O)Nc1ccccc1F	-26	-19*
38	CCCCN(C)S(=O)(=O)c1ccc2c(c1)OCCN2C(C)=O	.	98
39	CCC(=O)N(C)/C=C1\Sc2ccccc2C1=O	-52	104
40	O=CN(/C=C1\Sc2ccccc2C1=O)c1cccc2ccccc12	-34	-0.2*
41	CN1C(N)=NC(=O)/C1=C/c1coc2ccccc2c1=O	-35	97
42	N=C1/C(=C\c2coc3ccccc3c2=O)C(=O)N=C2SC=NN12	.	-55*
43	CCOC(=O)C1CCC(CNC(=O)N2CCCCCC2c2cccs2)CC1 (stereo unspecified)	.	102
44	CN(C)c1ccc(C(CNC(=O)C2CCCCC2)N(C)C)cc1 (stereo unspecified)	4	102
45	COC(=O)c1ccc(N)cc1O	-20	100
46	COC(=O)c1ccc(=O)c2nc3/c(=C/O)c(O)cc(=O)c3[nH]c12	50*	100
47	C=CCSc1nc2sc(C)c(C)c2c(=O)n1-c1ccccc1	-14	94
